Results from patent US9023354B2, “Combination therapy with MDM2 and EFGR inhibitors” (priority 2010, dated 2015).
Like-named read-outs stand apart in the source and are kept apart here.

Amino acid sequences for entries named in this document (tags omitted). Residues count along the entry.
UniProt Q00987, 1-150 limits assumed: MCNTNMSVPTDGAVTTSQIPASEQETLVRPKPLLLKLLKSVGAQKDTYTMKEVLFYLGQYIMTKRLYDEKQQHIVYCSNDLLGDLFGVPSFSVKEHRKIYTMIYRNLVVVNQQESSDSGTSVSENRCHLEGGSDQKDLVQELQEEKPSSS

Tests used:
p53/MDM2 binding = p53/MDM2 binding (Homo sapiens (Human), UniProt Q00987); assay: AlphaScreen measurement of p53/MDM2 interaction (truncated GST-MDM2 aa 1-150)
A431 cells [1] = assay: Caspase 3/7 activity, measurement of apoptosis; type: cell-based; conditions: 10 μM compared to 10 μM Tarceva
A431 cells [2] = assay: A431 cell proliferation assay (MTT), alone and in combination with Tarceva; type: cell-based; conditions: for A431 Cell Proliferation CI Value: combination with Tarceva, CI <0.8 indicates synergy, Example 9, Table 7B
[3] = read-out: Inhibition of p53/MDM2 Binding IC50 Value, Table 9

Structure (SMILES)	IC50 (p53/MDM2 binding; [3]) [µM]	also measured
CCOc1ccc(C(Nc2cc(C)ccn2)c2ccc3cccnc3c2O)cc1OC (centres unmarked)	3.5	
COc1cc(C(Nc2ccccn2)c2cc(Cl)c3cccnc3c2O)cc(I)c1O (centres unmarked)	5.7	
Cc1ccc2c(C)nc(Nc3nc(-c4ccccc4C)cc(=O)[nH]3)nc2c1		Caspase 3/7 activity % Increase Relative to Tarceva (A431 cells [1]): 137%
Cc1ccc2ccc(C(Nc3ccccn3)c3sccc3C)c(O)c2n1 (centres unmarked)	10	
Oc1c(C(Nc2ccccn2)c2ccc(C(F)(F)F)cc2)ccc2cccnc12 (centres unmarked)	6.2	A431 Cell Proliferation CI Value (A431 cells [2]): 0.65; IC50 (A431 cells [2]; read-out: A431 Cell Proliferation (IC50 Value), A431 cells, further studies, Example 9, Table 7A): 1.1 µM
C=CCOc1cccc(C(Nc2cc(C)ccn2)c2ccc3cccnc3c2O)c1 (centres unmarked)	5.8	
CCN1CCN(C(c2cccnc2)c2ccc3cccnc3c2O)CC1 (centres unmarked)	9.3	
COc1ccc(C(Nc2cc(C)ccn2)c2ccc3cccnc3c2O)c(OC)c1OC (centres unmarked)	6.3	
C=CCOc1ccc(C(Nc2ccccn2)c2ccc3cccnc3c2O)cc1 (centres unmarked)	14	
CCOc1ccc(C(Nc2cccnc2)c2cc(Cl)c3cccnc3c2O)cc1 (centres unmarked)	4.6	A431 Cell Proliferation CI Value (A431 cells [2]): 0.65; IC50 (p53/MDM2 binding; read-out: p53/MDM2 IC50 Value, Table 7C): 4.6 µM
